Assay results: PMC7070407, “Moringin, A Stable Isothiocyanate from Moringa oleifera, Activates the Somatosensory and Pain Receptor TRPA1 Channel In Vitro” (Molecules, 2020)

Chains of the proteins cited; added tags and fusions are not shown.
UniProt Q6RI86, whole entry: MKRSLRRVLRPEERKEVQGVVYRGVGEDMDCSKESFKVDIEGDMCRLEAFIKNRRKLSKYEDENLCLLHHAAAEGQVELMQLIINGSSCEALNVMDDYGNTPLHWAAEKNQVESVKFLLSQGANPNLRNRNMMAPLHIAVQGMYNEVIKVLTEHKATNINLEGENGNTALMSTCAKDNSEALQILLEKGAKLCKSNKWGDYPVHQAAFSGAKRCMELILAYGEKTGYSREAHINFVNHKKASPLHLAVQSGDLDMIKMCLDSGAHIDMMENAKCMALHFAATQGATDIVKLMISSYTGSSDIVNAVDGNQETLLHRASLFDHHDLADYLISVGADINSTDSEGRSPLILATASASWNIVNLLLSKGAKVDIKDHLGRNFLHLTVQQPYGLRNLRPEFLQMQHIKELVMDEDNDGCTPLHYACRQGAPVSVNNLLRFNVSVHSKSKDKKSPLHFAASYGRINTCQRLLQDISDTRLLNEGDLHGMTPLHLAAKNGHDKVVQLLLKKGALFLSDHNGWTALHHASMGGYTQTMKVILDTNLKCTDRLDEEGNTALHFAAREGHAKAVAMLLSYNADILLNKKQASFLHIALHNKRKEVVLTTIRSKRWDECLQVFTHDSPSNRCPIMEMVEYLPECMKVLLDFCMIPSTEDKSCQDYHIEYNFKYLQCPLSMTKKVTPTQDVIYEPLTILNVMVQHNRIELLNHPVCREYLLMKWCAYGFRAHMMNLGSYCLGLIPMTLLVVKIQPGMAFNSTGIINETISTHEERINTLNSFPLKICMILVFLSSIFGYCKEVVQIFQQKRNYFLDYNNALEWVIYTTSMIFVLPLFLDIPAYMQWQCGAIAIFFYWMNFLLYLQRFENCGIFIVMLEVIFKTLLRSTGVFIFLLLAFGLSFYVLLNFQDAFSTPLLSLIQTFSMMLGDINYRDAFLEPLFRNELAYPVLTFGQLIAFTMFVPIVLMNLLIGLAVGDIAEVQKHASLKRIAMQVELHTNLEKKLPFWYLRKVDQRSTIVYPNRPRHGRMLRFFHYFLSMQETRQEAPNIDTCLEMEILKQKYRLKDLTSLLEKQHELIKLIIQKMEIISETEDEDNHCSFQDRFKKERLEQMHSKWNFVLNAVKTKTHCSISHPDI

Molecular target: T1, rat TRPA1 (Rattus norvegicus, UniProt Q6RI86)
T1 construct: expressed in transfected cells; host or cells: HEK-293
Assay: Elevation of intracellular Ca2+ (Fluo-4) in HEK-293 cells stably transfected with rat TRPA1; agonist and antagonist/desensitizing behaviour
Assay type: cell-based
Procedure: Assay of rat TRPA1, TRPV2, TRPV3, TRPV4, TRPM8 or human TRPV1 mediated elevation of intracellular Ca^2+ in transfected HEK-293 cells are been performed as described. Briefly, human embryonic kidney (HEK-293) cells, stably transfected with rat TRPA1, TRPV2, TRPV3, TRPV4, TRPM8 or human TRPV1 (selected by Geneticin 600 μg mL^−1) or not transfected, were cultured in EMEM + 2 mM Glutamine + 1% Non-Essential Amino Acids (NEAA) + 10% FBS and maintained at 37 °C with 5% CO2. Stable transfections were checked by quantitative real-time polymerase chain reaction (PCR), quantitative real-time PCR was performed by an iCycler-iQ (Bio-Rad, Hercules, CA, USA) in a 20 μL reaction mixture containing the following: 10 μL iQ SYBR Green Supermix 2X (Bio-Rad), 20 ng of cDNA (calculated on the basis of the retro-transcribed RNA), and 330 nM for each primer. […] The day of the experiment the cells were loaded with Fluo-4 AM (4 μM in DMSO containing 0.02% Pluronic F-127) for 1 h in the dark at room temperature, rinsed and resuspended in Tyrode’s solution (145 mM NaCl, 2.5 mM KCl, 1.5 mM CaCl2, 1.2 mM MgCl2, 10 mM D-glucose, and 10 mM HEPES, pH 7.4), finally transferred to a quartz cuvette of a spectrofluorimeter (Perkin-Elmer LS50B; λEX = 488 nm, λEM = 516 nm) equipped with PTP-1 Fluorescence Peltier System (PerkinElmer Life and Analytical Sciences, Waltham, MA, USA) under continuous stirring. […]

Work on `C=CCN=C=S` [AITC, Allylisothiocyanate, reference compound] yielded an EC50 of 1430 ± 40 nM and an IC50 of 1710 ± 50 nM.
